# Yeast UUG start-1 – modulators of start codon recognition fidelity in yeast; S. cerevisiae UUG-firefly luciferase reporter, luminescence/redox ratio; AID 602363; 350,000 tested, 0.13% active; activity score, % at 18.7 µM;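 active = replicate mean at a twofold rise or more, about +100% in these data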;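 also: firefly luciferase made from a UUG start codon reports start codon fidelity; reporter light over untreated wells divided by growth signal over untreated wells; some hits fall short of that in this replicate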
# Tn6 DDE FP – inhibitors of Tn6 peptide binding to human fibrin DD(E); P02675; Fibrin DD(E) TRITC-Tn6 fluorescence polarization displacement; inhibition, % at 8.3 µM; 370,000 tested, 0.21% active;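 active = inhibition above a per-campaign cutoff: mean of compounds within control limits plus 3 SD, cut at about 15% in these data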
# DDE Tn7 FP inh – disrupts Tn7 cyclic peptide binding to fibrin D-Dimer-E complex; 370,000 tested, 0.13% active; FP displacement of FITC-Tn7 peptide from fibrin DD(E); 0% = median of compound wells per plate; P02675; inhibition, % at 8.3 µM;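 active = inhibition above the mean of compounds falling within the control limits plus 3 SD of them, cut at about 14% in these data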
#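 Assay system: human fibrin DD(E) protein / Input: 2 µM fibrin DD(E) / Benchmarks: high control of 10 µM Aha-Tn7 peptide / Measured by: fluorescence polarization of the labelled Tn7 tracer / Medium: Tris buffer with calcium and detergent, pH 7.8 / Timing: 10 min compound pre-incubation, 3 h probe incubation at room temperature / Repeats: one replicate per compound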
# PglD DTNB – PglD (C. jejuni) enzyme inhibition; purified PglD enzyme, DTNB colorimetric CoA detection; inhibition, % at 12.5 µM; 360,000 tested, 0.098% active; in the data active = inhibition above about 16%, passing the limit was not always enough
# Yeast UUG start-2 – yeast start codon fidelity modulation; shares compounds with Yeast UUG start-1; S. cerevisiae UUG-start firefly luciferase, luminescence, 4 h; 100% means double the DMSO signal; activation, % at 38 µM; 540 tested, under 10 active;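 active = signal increase whose fitted curve reaches an absolute level of 40 at a concentration under 10 µM; inactive = activity opposite to the expected increase, or the rest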
# A number is an active result; . = inactive; / = not tested or not shown. Only some compounds are listed: those with a hit (about 0.45% of all), similar ones and a draw of the others.
SMILES,Yeast UUG start-1,Tn6 DDE FP,DDE Tn7 FP inh,PglD DTNB,Yeast UUG start-2
CCCc1nc2ccc(C)cn2c1Cc1ccccc1C(F)(F)F,105,.,.,.,.
CC(C)CC#Cc1cnc2c(c1)C(=O)N([C@@H](C)CO)C[C@H](C)[C@H](CN(C)Cc1ccccn1)O2,.,/,/,.,/
C/C=C/c1cnc2c(c1)C(=O)N([C@H](C)CO)C[C@H](C)[C@@H](CN(C)C(=O)Cc1ccccn1)O2,.,/,/,.,/
C/C=C/c1cnc2c(c1)C(=O)N([C@@H](C)CO)C[C@@H](C)[C@@H](CN(C)C(=O)Cc1ccccn1)O2,143,/,/,.,.
CC(C)CC#Cc1cnc2c(c1)C(=O)N([C@H](C)CO)C[C@@H](C)[C@H](CN(C)Cc1ccccn1)O2,144,/,/,.,.
COc1ccc(NC(=O)N(C)C[C@@H]2OCCCC[C@@H](C)Oc3ccc(NC(=O)Nc4c(C)noc4C)cc3C(=O)N([C@@H](C)CO)C[C@H]2C)cc1,.,/,/,.,/
CO[C@H]1CN(C)C(=O)c2ccc(NS(=O)(=O)c3ccccc3)cc2OC[C@H](C)N(Cc2cccnc2)C[C@@H]1C,/,/,/,.,/
CN(C)Cc1cn(CC[C@H]2CC[C@@H](NS(=O)(=O)c3ccc(-c4ccccc4)cc3)[C@@H](CO)O2)nn1,.,/,/,.,/
CCN(CC)CC#CC(OC)(c1ccccc1)c1ccccc1,/,.,.,/,.
COc1ccc2oc(C(=O)OCC(=O)N3CCN(C(C)=O)CC3)c(C)c2c1,.,.,.,.,.
COc1ccc2oc(C(=O)OCC(=O)NCCc3ccc(S(N)(=O)=O)cc3)c(C)c2c1,.,.,.,.,/
CCOc1ccc2oc(C(=O)OCC(=O)NC(=O)NC)c(C)c2c1,.,.,.,.,.
COc1ccc2oc(C(=O)OCC(=O)NCCc3ccccc3)c(C)c2c1,.,.,.,.,.
CCCN1C[C@@H](C)[C@@H](OC)CN(C)C(=O)c2cc(NC(=O)Nc3ccccc3F)ccc2OC[C@H]1C,/,/,/,.,/
CCCC(=O)Nc1ccccc1NC(=O)c1ccc(OC(C)=O)cc1,444,.,.,.,.
CCCNC(=O)Nc1ccc2c(c1)OC[C@H](C)N(C(=O)C1CC1)C[C@@H](C)[C@H](OC)CN(C)C2=O,.,/,/,.,/
Cc1cc(N2CCOCC2)nc2ccc(NC(=S)N3CCCCC3C)cc12 (stereo not given),143,.,.,.,.
Cc1cc(N2CCOCC2)nc2ccc(NC(=O)C3CCCCC3)cc12,.,.,.,.,/
CC(C)C[C@@H](CN)NC(=O)c1nc[nH]c1C(=O)N[C@@H](Cc1c[nH]c2ccccc12)C(=O)CNC[C@H](C)NC(=O)c1nc[nH]c1C(=O)N[C@@H](CC(=O)O)C(=O)O,180,.,.,.,.
COc1ccc(CCNS(=O)(=O)c2ccccc2)cc1OC,705,.,.,.,.
COc1ccc(CCNS(=O)(=O)c2ccc(Cl)cc2)cc1OC,.,.,.,.,.
COc1ccc(CCNS(=O)(=O)c2ccc(OC)c(OC)c2)cc1OC,.,.,.,.,/
CCOC(=O)NNC(=O)C12CC3CC(CC(C3)C1)C2,489,.,.,.,.
COC(=O)NNC(=O)C12CC3CC(CC(C3)C1)C2,.,.,.,.,/
Cc1cccc(NC(=O)Cc2cccs2)n1,542,.,.,.,.
SMILES,Yeast UUG start-1,Tn6 DDE FP,DDE Tn7 FP inh,PglD DTNB,Yeast UUG start-2
O=C(c1cccnc1)N1C[C@@H]2[C@H](c3ccccc31)[C@@H](CO)N2C(=O)C1CCOCC1,117,/,/,.,.
O=C(c1cccnc1)N1C[C@@H]2[C@H](c3ccccc31)[C@H](CO)N2C(=O)C1CC1,115,/,/,.,.
C[C@@H]1CN([C@H](C)CO)C(=O)c2cc(NC(=O)CCCN(C)C)ccc2O[C@@H](C)CCCCO[C@H]1CN(C)S(=O)(=O)c1ccccc1,.,/,/,.,/
O=C(CN1CCOCC1)NCC[C@H]1CC[C@H](NC(=O)Nc2ccc(F)cc2)[C@H](CO)O1,184,/,/,.,.
O=C(CN1CCOCC1)NCC[C@@H]1CC[C@H](NC(=O)Nc2ccc(Cl)cc2)[C@@H](CO)O1,119,/,/,.,.
O=C(CN1CCOCC1)NCC[C@@H]1CC[C@H](NC(=O)Nc2ccc(F)cc2)[C@H](CO)O1,.,/,/,.,/
O=C(NCC[C@H]1CC[C@H](NC(=O)C2CCOCC2)[C@@H](CO)O1)c1ccc(F)cc1,.,/,/,.,/
COc1ccc(N/C(N)=N/c2nc(CSc3nnc(C)s3)cc(=O)[nH]2)cc1,172,.,.,.,.
CC(C)NC(=O)N(C)C[C@H]1Oc2ncc(C#CC3CCCC3)cc2C(=O)N([C@@H](C)CO)C[C@H]1C,.,/,/,.,/
